Antibody variant affinities, Ab-14 heavy chain, assay 1

Source: Engelhart et al. 2022 (doi:10.1038/s41597-022-01779-4), MIT Lincoln Laboratory and A-Alpha Bio; data file from the FLAb repository.

Target: peptide PDVDLGDISGINAS, taken from heptad repeat 2 (HR2) of SARS-CoV-2 spike.

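The starting antibody came from a phage panning campaign against this peptide. The library (AAYL49) carries one to three amino acid substitutions per variant, with no insertions or deletions. In AlphaSeq, yeast of one mating type display the scFv and yeast of the other type display the target. Mating (16 h, 30 °C) was followed by selection of diploids and sequencing of their barcodes. A regression on co-assayed BCL2-family reference pairs converts the normalised counts of each replicate to an apparent Kd. There are three technical replicates.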

Ab-14 is the parent antibody, in scFv form: VH, then three GGGGS repeats, then VL. The light chain is unchanged in all variants.
VH: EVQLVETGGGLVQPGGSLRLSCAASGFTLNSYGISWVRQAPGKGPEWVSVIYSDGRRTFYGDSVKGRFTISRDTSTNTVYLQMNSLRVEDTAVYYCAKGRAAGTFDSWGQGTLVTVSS
VL: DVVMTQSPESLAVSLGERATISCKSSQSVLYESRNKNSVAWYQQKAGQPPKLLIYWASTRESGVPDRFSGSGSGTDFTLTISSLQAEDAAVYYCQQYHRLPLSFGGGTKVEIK

Positions count from residue 1 of the parent VH; L29C puts C in place of L.
The read-out is the apparent dissociation constant on a log10 scale (nM): the lower, the stronger.
Replicates are averaged; those with no signal do not enter the mean.
A pair that was not seen in any replicate is written "no signal"; this usually means weak binding, but a binder can also be missed.
Parent in this assay: reference entry 0.65, copy in this library 4.11 (one replicate of three).
Empty control strains, which show no peptide, gave a signal in 15% of pairings with library AAYL49; the median was 4.06 and 95% of these signals were weaker than 2.83. No background was subtracted.

| # | mean, log10 nM | replicates with signal | changes |
|---|---|---|---|
| 1 | 4.22 | 2/3 | L29C S35M F59V |
| 2 | 3.17 | 1/3 | R57G V64H |
| 3 | 1.56 | 3/3 | T28F S31N |
| 4 | no signal | 0/3 | T28M Y32F R57G |
| 5 | no signal | 0/3 | S31Y T58Q Y60W |
| 6 | 4.09 | 1/3 | N30R D54S D106E |
| 7 | 2.36 | 1/3 | I34Q D62P A101Q |
| 8 | no signal | 0/3 | G26L S35I D54L |
| 9 | no signal | 0/3 | F27K I51T K65G |
| 10 | 3.30 | 1/3 | G26V S35A V64Y |
| 11 | no signal | 0/3 | S63A A102P F105W |
| 12 | no signal | 0/3 | G99K G103M F105W |
| 13 | 3.05 | 3/3 | F27V Y32Q F59N |
| 14 | 4.20 | 1/3 | Y32H D62K K65C |
| 15 | no signal | 0/3 | N30D D54E S107N |
| 16 | no signal | 0/3 | S31K G99L A102N |
| 17 | 1.96 | 1/3 | R56K R57T F59T |
| 18 | 4.68 | 1/3 | V50H G99E T104D |
| 19 | 4.08 | 2/3 | I34G S35E Y60K |
| 20 | 4.57 | 3/3 | Y32E S35T |
| 21 | no signal | 0/3 | I51V S63Q T104G |
| 22 | 4.65 | 1/3 | S31D K65W A102L |
| 23 | 2.60 | 2/3 | G26Y D106G |
| 24 | no signal | 0/3 | S31H Y52R V64T |
| 25 | 3.69 | 1/3 | S31P R56L D62K |
| 26 | 3.73 | 1/3 | F27I T58W G61N |
| 27 | 3.69 | 1/3 | Y60R D62W R100D |
| 28 | 4.34 | 1/3 | Y52H T58W Y60E |
| 29 | 4.07 | 2/3 | L29D S31L G61C |
| 30 | no signal | 0/3 | T58W F59T Y60A |
| 31 | 5.09 | 1/3 | G26M N30H T104I |
| 32 | no signal | 0/3 | Y52L R100F F105G |
| 33 | 3.94 | 1/3 | F27Q Y52N A101V |
| 34 | 2.75 | 2/3 | T58R G99W G103C |
| 35 | 4.93 | 1/3 | I34G I51C R56Q |
| 36 | 3.22 | 1/3 | S53A T58K G99P |
| 37 | 2.27 | 1/3 | V50Q D62Q G99Y |
| 38 | 4.18 | 1/3 | L29N K65S G103P |
| 39 | no signal | 0/3 | S31Q S107I |
| 40 | 3.44 | 2/3 | I51M S53G V64A |
| 41 | no signal | 0/3 | I51M D62W K65Q |
| 42 | 3.24 | 1/3 | N30L Y60W D62V |
| 43 | no signal | 0/3 | G33W F105E |
| 44 | 5.06 | 1/3 | S31V I51E D62T |
| 45 | 4.05 | 2/3 | T28G V50E K65Q |
| 46 | 1.63 | 2/3 | N30Q I34M A102V |
| 47 | 1.86 | 3/3 | F59H R100P F105K |
| 48 | no signal | 0/3 | R57K T58P G61Y |
| 49 | no signal | 0/3 | V64K G99W R100Y |
| 50 | 4.54 | 1/3 | G55H V64R R100V |
| 51 | no signal | 0/3 | G33C I34Y A102I |
| 52 | 2.94 | 1/3 | V64S K65D G103T |
| 53 | no signal | 0/3 | L29C D54V D62L |
| 54 | 3.62 | 1/3 | T28S Y52M G103H |
| 55 | no signal | 0/3 | G26T V50I D62C |
| 56 | 2.15 | 3/3 | R56V R57T |
| 57 | 2.06 | 3/3 | F59M S63R R100M |
| 58 | no signal | 0/3 | L29D Y32I G103Q |
| 59 | no signal | 0/3 | R57G A101V A102K |
| 60 | 5.49 | 2/3 | G33D V50D I51G |
| 61 | no signal | 0/3 | I51L G103Q |
| 62 | 4.34 | 1/3 | T28L I34D G61K |
| 63 | 4.29 | 1/3 | T58Y S63F |
| 64 | no signal | 0/3 | I51L A102E |
| 65 | 3.93 | 1/3 | S53N G55F G99N |
| 66 | no signal | 0/3 | S31P V64K A101R |
| 67 | no signal | 0/3 | T58V D62F R100Q |
| 68 | no signal | 0/3 | V50E R100N S107L |
| 69 | no signal | 0/3 | Y32V A102R |
| 70 | 4.34 | 1/3 | D54Q F105D D106T |
| 71 | no signal | 0/3 | D54F G61N V64P |
| 72 | no signal | 0/3 | V64W R100Q D106Y |
| 73 | 4.40 | 1/3 | N30D S53E G55N |

For reference, 4 entries of the list once more:

| changes | mean, log10 nM | replicates with signal |
|---|---|---|
| T28G V50E K65Q | 4.05 | 2/3 |
| S31V I51E D62T | 5.06 | 1/3 |
| L29D Y32I G103Q | no signal | 0/3 |
| N30R D54S D106E | 4.09 | 1/3 |